For 1 compound, IC50 results are on record in BindingDB's records for doi:10.1021/jm00010a022 (Duquesne University, 1995).

In general, IC50 refers to the midpoint of a concentration-inhibition curve. High values mean weaker potency, low ones greater potency.

This assay can be described thus: Inhibitory activity against cultured Toxoplasma gondii.

As to `COc1cc(NCc2cnc3nc(N)nc(N)c3c2C)cc(OC)c1OC` [5-Methyl-6-[(3,4,5-trimethoxy-phenylamino)-methyl]-pyrido[2,3-d]pyrimidine-2,4-diamine], the half-maximal inhibitory concentration (IC50) is 23 µM.
